{"source": "patent US20070036775A1", "about": "“Method of modulating or examining Ku70 levels in cells” (priority 2001, published 2007)", "test_system": "Cytochrome c", "experiment": "Cytochrome c release from mitochondria (subcellular fractionation, Western blot)", "type": "cell-based", "procedure": "FIG. 2A: Ku70 suppressed STS-induced apoptosis in Hela cells. Hela cells (10^6 cells) were transfected with 0.5 μg pEGFP and 1.0 μg pCMV-2B (Vector), pCMV-2B-Ku70 (Ku70 wt), pCMV-2B-Ku701-535 (Ku701-535), or pCMV-2B-Ku70536-609 (Ku70536-609). One day following transfection, cells were treated with 200 nM STS and the number of apoptotic cells was counted as described in FIG. 1 after 24 hours of STS treatment. FIG. 2B: Ku70 suppressed UVC-induced apoptosis. HEK293T cells (10^6 cells) were transfected with 0.5 μg PEGFP and 1.0 μg pCMV-2B (Vector), pCMV-2B-Ku70 wt (Ku70 wt), or pCMV-2B-Ku70536-609 (Ku70536-609). One day following transfection, cells were exposed to 200 J/m^2 of UVC-irradiation. After 24 hours, apoptotic cells were counted as described in FIG. 1. FIG. 2C: Ku70 suppressed Bax-induced Caspase activation. […] Caspase activity was measured one day following transfection as described in Experimental Procedure. […] Caspase activity was assessed as described in Experimental Procedure. […] Cytochrome c released from mitochondria into cytosol was analyzed by subcellular fractionation followed by Western blot analysis of Cytochrome c (Cyt c) as well as mitochondrial FoF1-ATP-synthase subunit F1α (F1α) as described in Experimental Procedure. […]", "data": [{"substance": "Ku70: human full length Ku70, 70 kDa subunit of Ku-complex (609 amino acids), expressed from pCMV-2B plasmid", "values": [{"measurement": "Cytochrome c release from mitochondria induced by Bax-expression", "setting": "HEK293T cells", "result": "attenuated"}, {"measurement": "Cytochrome c release from mitochondria in STS-treated HeLa cells and UVC-irradiated HEK293T cells", "setting": "data not shown", "result": "blocked Cytochrome c release from mitochondria"}]}]}
